Experimental data: publication PMC12648656, “Palladium(II) Complexes with Noncovalent Interactions with DNA: Solution Speciation Controlled by Solvent Identity, pH, and Concentration” (Inorganic Chemistry, 2025)

Legend:
Format in all cases: physicochemical
[1] = n-Octanol/water and n-octanol/Tris buffer shake-flask partitioning
Experimental: The distribution coefficient values (D 7.4) of the compounds were determined by the traditional shake-flask method in n-octanol/buffered aqueous solution at pH 7.40 for 5 mM Tris HCl with 0.1 M KCl and at pH 7.4 at 25.0 ± 0.2 °C. The ligand and complexes were dissolved in n-octanol (presaturated by the aqueous buffer) because of the very low aqueous solubility. The aqueous buffer solution and n-octanol ratio was 1:1 due to the expected high lipophilicity of the compounds. First, samples were mixed with vertical rotation (∼20 rpm) for 3 h, and then the two phases were separated by centrifugation at 3000 rpm (∼1000g) for 3 min. After separation, UV–vis spectra of the compounds were recorded in both phases. Spectra of the n-octanol phases were compared to those of the original n-octanol stock solutions.
The distribution coefficient values were also determined using unbuffered water and octanol (also presaturated) with a ratio of 1:1.

[2] = Stability in physiological buffers (Tris, phosphate, HEPES) by UV-vis; conditions: pH 7.4, 0.1 M chloride
Experimental: The reaction of the metal complexes (2) and (3) with buffer components was followed in an array of DMSO percentages, from 1% to 60% (v/v) DMSO/H2O (pH 7.4) medium. The samples were prepared by dilution of the stock solution of the respective complex in DMSO (5 mM) with 5 mM Tris 1% (v/v) DMSO/H2O or 5 mM phosphate buffers 60% (v/v) DMSO/H2O (pH 7.40 in both cases), reaching a final concentration of 10^–6 to 10^–4 M. The UV–vis spectra of the final samples were followed over time at 37 °C for up to 24 h.

[3] = Stability and DMSO coordination in DMSO by 1H NMR; conditions: pure DMSO
Experimental: (a) Complex (2) solutions in DMSO (D2O) investigated by NMR spectroscopy: Trying to investigate if the higher concentration is responsible for the complex transformation process in DMSO, we monitored the solution of complex (2) at 0.5 and 1 mM by ^1H NMR spectroscopy (Figure a). We could clearly see that complex (2) is only detected pure at a concentration of 0.5 mM. As the concentration of complex (2) increases, the molar fraction of a new coordinated species (complex (3)) gradually rises from 0% (Figure a(3)) at 0.5 mM to 8% at 3 mM (Figure a(1)).
NMR spectra were recorded at room temperature, using a two-channel 300 MHz Bruker Avance III-HD Nanobay spectrometer equipped with a 5 mm BBO 1H/X probe and Z gradients, located at the Interdepartmental Investigation Service (SIdI). […] Mass spectra were recorded using FAB (fast atom bombardment) in a Waters VG AutoSpec mass spectrometry unit and using MALDI (matrix-assisted laser desorption/ionization) with a Bruker Ultraflex III (MALDI-TOF/TOF) mass spectrometry unit, both located at SIdI. Infrared (IR) spectra were recorded using a PerkinElmer Model 283 spectrometer with an attenuated total reflectance (ATR) MIRacle Single Reflection Horizontal accessory and equipped with CsI optical windows for spectra between 600 and 200 cm^–1 in Nujol mull preparations. […]

[4] = HPLC analysis of aqueous solution integrity; conditions: 20 μM in 3% DMSO aqueous solution, after 24 h, 254 nm
Experimental: Ligand, complex (2), and complex (3) solutions were prepared fresh as described in the UV–vis stability assay. Prior to the injection to the column, 20 μL was taken and diluted with 180 μL of HPLC-grade acetonitrile at various time points (t = 0 and 24 h). 20 μL of this diluted sample was injected in the Zorbax Eclipse Plus C18 column (4.6 × 100 mm, 3.5 μm): flow rate, 1 mL/min; detection, UV 254 nm; flow solvent system A/B (acetonitrile/water, v/v): 70:30 and analyzed with 254 nm radiation up to 10 min.

Solubility observations = conditions: as observed; aqueous solution for HL

Row | Substance | log D o/t ([1]; n-octanol/5 mM Tris HCl with 0.1 M KCl, pH 7.40, 25.0 °C) | log D o/w ([1]; n-octanol/pure (unbuffered) water, 1:1) | behaviour in HEPES buffer ([2]; HEPES, 60% DMSO) | behaviour in phosphate buffer ([2]; phosphate, 3% (v/v) DMSO) | time without changes [3] | integral of the HPLC signal of intact complex [4] | solubility (Solubility observations)
1 | Chlorido(dimethyl sulfoxide)(1H-imidazole-4-carboxaldehyde-4N-p-chlorophenylthiosemicarbazonato)palladium(II) [(3)] | +1.94 ± 0.04 | +1.11 ± 0.06 | formed precipitation | precipitated | more than 3 days | only slightly diminished | –
2 | Di-μ-chlorido-bis(1H-imidazole-4-carboxaldehyde-4N-p-chlorophenylthiosemicarbazonato)dipalladium(II) [(1)] | – | – | – | – | – | – | poor solubility
